# Data taken from PMC4595834, “Comparison of carbon-sulfur and carbon-amine bond in therapeutic drug: 4β-S-aromatic heterocyclic podophyllum derivatives display antitumor activity” (Scientific Reports, 2015).
# Protein sequences, listed by entry. Tags and fused reporters are not part of them. Lines headed by an entry give the natural chain unless they say otherwise; changes in a name come on top.
# UniProt P11388: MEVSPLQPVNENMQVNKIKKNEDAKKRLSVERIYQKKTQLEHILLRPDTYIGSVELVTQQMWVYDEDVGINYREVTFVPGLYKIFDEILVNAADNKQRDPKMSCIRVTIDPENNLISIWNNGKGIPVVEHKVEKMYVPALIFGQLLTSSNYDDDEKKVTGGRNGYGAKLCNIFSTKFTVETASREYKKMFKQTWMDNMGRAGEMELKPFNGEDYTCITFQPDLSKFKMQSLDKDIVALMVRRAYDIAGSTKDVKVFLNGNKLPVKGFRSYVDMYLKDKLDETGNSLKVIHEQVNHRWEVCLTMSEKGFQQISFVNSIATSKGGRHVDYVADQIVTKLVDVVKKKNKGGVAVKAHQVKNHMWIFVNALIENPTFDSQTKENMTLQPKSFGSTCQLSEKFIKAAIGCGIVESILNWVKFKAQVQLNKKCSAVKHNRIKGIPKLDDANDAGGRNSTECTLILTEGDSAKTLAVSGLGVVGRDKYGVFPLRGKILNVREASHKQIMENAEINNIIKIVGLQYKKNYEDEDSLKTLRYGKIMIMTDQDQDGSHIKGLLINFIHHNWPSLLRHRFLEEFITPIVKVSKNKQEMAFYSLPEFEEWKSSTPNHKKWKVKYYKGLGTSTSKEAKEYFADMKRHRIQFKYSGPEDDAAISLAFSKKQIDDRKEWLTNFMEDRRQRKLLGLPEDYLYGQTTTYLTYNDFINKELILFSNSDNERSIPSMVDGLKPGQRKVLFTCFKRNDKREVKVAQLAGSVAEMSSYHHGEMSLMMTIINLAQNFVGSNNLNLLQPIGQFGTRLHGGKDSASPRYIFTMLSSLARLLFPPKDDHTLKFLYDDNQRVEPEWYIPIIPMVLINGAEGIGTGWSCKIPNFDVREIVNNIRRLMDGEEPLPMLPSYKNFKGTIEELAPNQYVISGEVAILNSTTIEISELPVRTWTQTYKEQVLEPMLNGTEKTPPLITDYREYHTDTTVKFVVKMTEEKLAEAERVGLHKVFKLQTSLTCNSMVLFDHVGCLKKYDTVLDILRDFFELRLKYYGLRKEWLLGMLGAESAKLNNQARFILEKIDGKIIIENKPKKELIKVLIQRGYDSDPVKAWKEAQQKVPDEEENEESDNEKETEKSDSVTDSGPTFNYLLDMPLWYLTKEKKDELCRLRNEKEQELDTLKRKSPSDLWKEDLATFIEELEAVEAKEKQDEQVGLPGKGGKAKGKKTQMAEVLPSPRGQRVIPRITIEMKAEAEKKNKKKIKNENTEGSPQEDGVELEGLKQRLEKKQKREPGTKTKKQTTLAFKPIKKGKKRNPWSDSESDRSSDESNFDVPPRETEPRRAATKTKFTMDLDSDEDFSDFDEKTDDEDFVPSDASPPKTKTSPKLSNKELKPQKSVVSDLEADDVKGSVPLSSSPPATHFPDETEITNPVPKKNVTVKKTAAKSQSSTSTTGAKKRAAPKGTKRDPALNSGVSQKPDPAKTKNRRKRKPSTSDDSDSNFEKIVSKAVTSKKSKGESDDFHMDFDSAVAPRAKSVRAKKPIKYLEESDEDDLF
# Biological target: T1, Topoisomerase II (Homo sapiens, UniProt P11388)
# T1 construct: purchased TopoGEN Inc., USA 2000H
# Experiment: kDNA decatenation assay (Topoisomerase II inhibition)
# Type: biochemical
# Settings: 100 μM
# Protocol: Kinetoplast DNA (kDNA) is a catenated network of mitochondrial DNA seen in trypanosomes. The kDNA decatenation assay has been utilized to test drug potential to inhibit Topo II activity.
# Topoisomerase II activity was determined using kit (TopoGEN Inc., USA, Cat no. 2000H). […] Next, 4 U of topoisomerase II was added and the reaction was allowed to proceed for 60 min at 37 °C. The reaction was stopped by the addition of 1/10 volume of 1 mg/mL proteinase K and incubated for 15 min at 37 °C. The reaction was quenched via the addition of loading buffer (350 mM Tris, pH 6.8, 12% SDS, 0.012% bromophenol blue, 47% glycerol) and was then analyzed by electrophoresis on a 1% agarose gel in TBE buffer (89 mM Tris, 89 mM borate, and 2 mM Na-EDTA, pH 8.3) for 0.5 h at 140 V. The gel was visualized under UV illumination and photographed on an Alpha Imager.
smiles,measurement,value
"COc1cc([C@@H]2c3cc4c(cc3[C@@H](O[C@@H]3O[C@@H]5CO[C@@H](C)O[C@H]5[C@H](O)[C@H]3O)[C@H]3COC(=O)[C@H]23)OCO4)cc(OC)c1O [etoposide, reference compound]",inhibition of catalytic activity of Topo II (kDNA decatenation),partly inhibition effect
